Data: ChEMBL document CHEMBL4033781 (J Med Chem, 2018)

Chains of the proteins cited; added tags and fusions are not shown.
UniProt Q64541, whole entry: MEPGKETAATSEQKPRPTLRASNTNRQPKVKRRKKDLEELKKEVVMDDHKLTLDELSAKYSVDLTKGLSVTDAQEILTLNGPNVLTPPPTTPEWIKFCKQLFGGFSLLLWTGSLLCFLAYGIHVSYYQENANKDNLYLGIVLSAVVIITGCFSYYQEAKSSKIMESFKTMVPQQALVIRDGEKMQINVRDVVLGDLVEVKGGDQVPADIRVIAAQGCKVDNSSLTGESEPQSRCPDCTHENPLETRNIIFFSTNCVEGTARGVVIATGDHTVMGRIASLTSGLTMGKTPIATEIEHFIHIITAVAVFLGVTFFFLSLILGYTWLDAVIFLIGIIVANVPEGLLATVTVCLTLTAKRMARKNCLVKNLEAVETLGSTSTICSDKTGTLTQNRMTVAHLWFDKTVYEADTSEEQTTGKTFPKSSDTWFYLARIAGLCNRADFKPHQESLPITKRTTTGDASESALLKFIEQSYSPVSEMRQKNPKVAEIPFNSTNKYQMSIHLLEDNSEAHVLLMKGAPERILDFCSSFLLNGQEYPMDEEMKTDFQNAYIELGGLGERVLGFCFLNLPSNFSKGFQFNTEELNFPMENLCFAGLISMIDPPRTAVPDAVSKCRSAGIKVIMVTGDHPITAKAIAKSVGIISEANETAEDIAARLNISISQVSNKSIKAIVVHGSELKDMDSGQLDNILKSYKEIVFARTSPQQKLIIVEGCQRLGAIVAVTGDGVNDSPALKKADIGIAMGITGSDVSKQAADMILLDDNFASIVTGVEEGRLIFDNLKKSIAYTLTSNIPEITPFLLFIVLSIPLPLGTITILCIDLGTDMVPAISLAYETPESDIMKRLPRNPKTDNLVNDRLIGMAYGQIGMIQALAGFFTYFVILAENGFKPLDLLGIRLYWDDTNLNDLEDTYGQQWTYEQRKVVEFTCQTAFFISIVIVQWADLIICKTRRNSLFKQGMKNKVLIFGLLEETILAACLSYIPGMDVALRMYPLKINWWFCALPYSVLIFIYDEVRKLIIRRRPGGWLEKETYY

Key:
[1] = target: Sodium/potassium-transporting ATPase subunit alpha-4 (Rattus norvegicus) (UniProt Q64541); test: Inhibition of Na+/K+-ATPase alpha4 in Long Evans rat cauda epididymis sperm assessed as plasma membrane depolarization at 10^-8 M after 1 hr by [DiSC3(5)] staining based fluorescent assay; parameters: scale not given: the % may be the effect or the level left
[2] = target: Sodium/potassium-transporting ATPase subunit alpha-4 (Rattus norvegicus) (UniProt Q64541); test: Inhibition of Na+/K+-ATPase alpha4 in Long Evans rat cauda epididymis sperm assessed as reduction in total sperm motility at >=10^-8 M after 1 hr by SYTO staining based microscopic method
[3] = target: Sodium/potassium-transporting ATPase subunit alpha-4 (Rattus norvegicus) (UniProt Q64541); test: Inhibition of Na+/K+-ATPase alpha4 in Long Evans rat cauda epididymis sperm assessed as increase in intracellular calcium level in sperm at 10^-8 M after 1 hr by calcium green-1-AM staining based confocal microscopic method; assay type: cell-based; parameters: scale not given: the % may be the effect or the level left

C[C@]12C[C@@H](O)[C@H]3[C@@H](CC[C@]4(O)C[C@@H](O)C[C@@H](O)[C@]34CO)[C@@]1(O)CC[C@@H]2c1cn(Cc2ccccc2)nn1
Activity [1]: 40% | inhibition [2]: 60% | Activity [3]: 40%
